Reference: US20230028658A1, “EXPANDED DOSAGE REGIMENS FOR INTEGRIN INHIBITORS” (Pliant Therapeutics, Inc., priority 2021, published 2023)

System: Type I Collagen gene Col1a1 expression
Experiment: Precision cut lung slices of mice under acute bleomycin exposure, Col1a1 expression
Assay type: cell-based, Mice (C57BL/6)
Description: Mice (C57BL/6) were administered 3 U/kg of bleomycin (Teva Pharmaceuticals; North Wales, Pa.) on day 0 via oropharyngeal aspiration while under anesthesia. On day 14, precision cut lung slices were obtained. Following euthanization, 2% low gelling temp agarose was injected into the mouse lungs via the trachea. […] The lobes were then subjected to precision slicing to obtain samples for culture using a microtome (Compresstome VF-300-0Z, Precisionary; Greenville, N.C.). Individual slices were distributed in a multiwell culture plate and cultured for 3 days under control (DMSO) and test compound conditions.

Which “Type I Collagen gene Col1a1 expression” value does the source give for `Cc1cc(C)n(-c2cccc([C@H](CC(=O)O)CN3CC[C@H](CCc4ccc5c(n4)NCCC5)C3)c2)n1` [first pan-αv small molecule inhibitor, (3S)-3-[3-(3,5-dimethyl-1H-pyrazol-1-yl)phenyl]-4-{(3S)-3-[2-(5,6,7,8-tetrahydro-1,8-naphthyridin-2-yl)ethyl]-1-pyrrolidinyl}butanoic acid] here?
Its value is “reduced Type I Collagen gene Col1a1 expression”.
